What was measured:
h5-HT7 receptor [1] = target: T1, h5-HT7 receptor (Homo sapiens, UniProt P34969); conditions: intact cells, 1 μM risperidone or buffer then wash; 2 nM [3H]5-HT; two-way ANOVA, p<0.05
h5-HT7 receptor [2] = target: T1, h5-HT7 receptor; conditions: 10 nM risperidone pre-treatment, wash, 1 μM drug 90 min, 10 μM 5-HT

Sequences of proteins named here, by UniProt entry; tags and fusion partners are left off.
UniProt P34969, whole entry: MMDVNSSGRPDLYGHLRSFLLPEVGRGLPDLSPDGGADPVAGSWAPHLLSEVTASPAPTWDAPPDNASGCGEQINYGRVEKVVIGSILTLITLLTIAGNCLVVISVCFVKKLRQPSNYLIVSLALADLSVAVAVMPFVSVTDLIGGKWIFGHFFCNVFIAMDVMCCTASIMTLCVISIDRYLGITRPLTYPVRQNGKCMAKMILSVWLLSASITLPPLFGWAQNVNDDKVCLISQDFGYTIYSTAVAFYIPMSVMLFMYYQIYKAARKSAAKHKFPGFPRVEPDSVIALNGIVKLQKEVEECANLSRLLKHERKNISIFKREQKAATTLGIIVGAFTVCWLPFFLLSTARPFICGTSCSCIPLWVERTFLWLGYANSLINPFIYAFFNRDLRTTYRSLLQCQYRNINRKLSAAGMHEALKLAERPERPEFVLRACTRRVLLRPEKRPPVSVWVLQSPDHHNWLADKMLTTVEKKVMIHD

SMILES: CC1CCN(CC[C@H]2CCCN2S(=O)(=O)c2cccc(O)c2)CC1 [SB269970]
- difference in affinity between control and risperidone-treated cells (h5-HT7 receptor [1]): significant differences
- reactivation of risperidone-inactivated h5-HT7 receptors (h5-HT7 receptor [2]): reactivation of the receptor

SMILES: CN1CCN2c3ccccc3Cc3ccccc3C2C1 (stereo not shown) [mianserin]
- difference in affinity between control and risperidone-treated cells (h5-HT7 receptor [1]): significant differences
- reactivation of risperidone-inactivated h5-HT7 receptors (h5-HT7 receptor [2]): reactivation of the receptor

From PMC3052287 (Psychopharmacology, 2010)
